Assay: human volunteer study: alertness (quantitative EEG), cognition (psychometric tests), satiety, leptin, tolerance, blood levels
Type: in vivo
Settings: 6 male volunteers, oral; olanzapine 5 mg alone; analyzed for 24 hours
Procedure: A group of 6 male volunteers received orally, successively and at one-week intervals: 1) a placebo 2) olanzapine at a dose of 5 mg 3) BF 2649 at a dose of 60 mg 4) a combination of olanzapine and BF 2649 at the doses indicated above.
The subjects were then analyzed for a period of 24 hours with regard to parameters of alertness (quantitative EEG), cognition (various psychometric tests) and satiety (questionnaires for the self-evaluation of feelings of hunger, desire to eat, gastric fullness). In addition, the levels of the two medicaments in the blood was analyzed repeatedly in the course of the nychthemeron.

Cc1cc2c(s1)Nc1ccccc1N=C2N1CCN(C)CC1 [olanzapine]
feelings of hunger (satiety self-evaluation questionnaires): very marked increase
psychometric tests, in particular attention (cognition): profound deterioration
rapid waves of the EEG (quantitative EEG): decrease in the rapid waves of the EEG to the benefit of the slow waves
sedation (alertness): deep sedation

Reference: US8106041B2, “Combination product comprising an antagonist or inverse agonist of histamine receptor H3 and an antipsychotic and antidepressant agent, and use thereof for the preparation of a medicament that prevents the adverse effects of psychotropic drugs” (Bioprojet, priority 2003, dated 2012)
